{"source": "patent US7087035B2", "about": "(priority 1999, dated 2006)", "conditions": "for average flux (mean±sem): 100 μA/cm^2, extrapolated using pharmacokinetic analysis", "note": "Where two headings read alike, the source gives them in different places."}
{"substance": "insulin", "values": [{"measurement": "plasma insulin concentrations", "setting": "effect of skin stretching, 100 μA/cm^2 for 2 hours, radioimmunoassay, FIG. 28", "result": "significant enhancement effect of skin stretching"}, {"measurement": "average flux (mean±sem)", "setting": "stretched group", "result": "53±13", "unit": "μg/cm^2h"}, {"measurement": "average flux (mean±sem)", "setting": "unstretched group", "result": "26±9", "unit": "μg/cm^2h"}, {"measurement": "amount of insulin delivered transdermally", "setting": "with skin stretching relative to no stretching, FIG. 28", "result": "doubled"}]}
